Experimental data published in patent publication US12679851B2, “Methyl-substituted benzobisoxazole compound and use thereof” (TONGHUA DONGBAO PHARMACEUTICAL CO., LTD., priority 2020, dated 2026).

Sequences of proteins named here, by UniProt entry; tags and fusion partners are left off. Residues count along the entry.
UniProt P43220, 24-463 limits assumed: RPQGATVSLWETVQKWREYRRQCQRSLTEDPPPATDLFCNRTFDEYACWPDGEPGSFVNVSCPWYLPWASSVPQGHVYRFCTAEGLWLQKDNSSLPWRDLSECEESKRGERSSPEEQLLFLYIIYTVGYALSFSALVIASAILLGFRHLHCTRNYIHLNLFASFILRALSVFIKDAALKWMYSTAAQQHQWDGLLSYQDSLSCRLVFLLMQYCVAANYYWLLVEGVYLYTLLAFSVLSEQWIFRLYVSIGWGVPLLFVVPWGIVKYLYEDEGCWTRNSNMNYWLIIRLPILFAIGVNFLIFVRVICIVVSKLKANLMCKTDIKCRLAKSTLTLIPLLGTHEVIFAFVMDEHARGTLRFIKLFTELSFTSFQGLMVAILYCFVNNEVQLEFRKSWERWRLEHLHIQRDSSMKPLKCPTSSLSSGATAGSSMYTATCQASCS

Biological target: GLP-1 receptor (Homo sapiens, UniProt P43220)
Test: Cell activity test in vitro (cAMP detection, GLP-1 HEK293 cells)
Details: read-out: Human-GLP 1, EC50, HEK293 host cell
Description: The cells were constructed by Wuxi New Drug Development Co., Ltd. Shanghai.
The compound was formulated with DMSO to a working concentration of 30 μM. In this test, the usage amount of each sample was 5 μL.
The pH was adjusted to 7.4 and the volume was fixed to 25 mL with HBSS 1×.
Preparation of cAMP detection reagent: 250 μL of cAMP-D2 and 250 μL of anti-cAMP cryptate reagent were added to 4 mL of lysis buffer, and mixed gently.
The test compound was diluted 3 times by 10 points with a starting concentration of 30 μM, and the dilutions were completed by Bravo.
The reference compound exenatide was diluted 3 times by 10 points with a starting concentration of 500 nM, and the dilutions were completed by Bravo. […]
The TopSeal-A was removed, and the EnVision reading was performed.

Work on `CC1(c2ccc(Cl)cc2F)Oc2cccc(C3=CCN(Cc4nc5cc(C(=O)O)sc5n4C[C@@H]4CCO4)CC3)c2O1` (some centres unmarked) yielded an EC50 of 8.63 nM.
In the case of `CC1(c2ccc(Cl)cc2F)Oc2cccc(C3=CCN(Cc4nc5sc(C(=O)O)cc5n4C[C@@H]4CCO4)CC3)c2O1` (some centres unmarked), the EC50 is reported as 1.16 nM.
